# Measured values taken from patent US10876088B2, “Modular organ microphysiological system with integrated pumping, leveling, and sensing” (Massachusetts Institute of Technology, priority 2016, dated 2020).
# Tested on: 7-way MPS platform
# Conditions: diclofenac added to apical side of gut MPS
substance,measurement,value
4′-hydroxy-DCF [4-OH-DCF],absorption and distribution across MPS compartments,detected in all the others MPS compartments
